Assay results published in patent US20260102359A1, “COMBINATION TREATMENT OF DERMAL AND TRANSDERMAL FIBROTIC DISEASES, DISORDERS AND ASSOCIATED PAIN AND INFLAMMATION” (ERESINA, LLC, priority 2022, published 2026).

The molecules below were run on hDMFa myofibroblast cells.
Design: key to the marks not given beside the values

| Molecule | Compound Myofibroblast Cytotoxicity Activity |
| --- | --- |
| CC1=C(/C=C/C(C)=C/C=C/C(C)=C/C=C/C=C(C)/C=C/C=C(C)/C=C/C2=C(C)CCCC2(C)C)C(C)(C)CCC1 [Cmpd 7, β-Carotene] | +++ |
| O=C1C=CC(=O)C=C1 [Cmpd 36, 1,4-Benzoquinone] | ++ |
| Cn1c(=O)c2[nH]cnc2n(C)c1=O [Cmpd 106, Aminophylline] | +++ |
| O=C(OCCOCCO)c1ccccc1Nc1cccc(C(F)(F)F)c1 [Cmpd 441, Etofenamate] | +++ |
| CC[C@H](C)C(=O)O[C@H]1C[C@@H](C)C=C2C=C[C@H](C)[C@H](CC[C@@H]3C[C@@H](O)CC(=O)O3)[C@H]21 [Cmpd 610, Lovastatin] | +++ |
| (+)-Ketoconazole [Cmpd 12] | +++ |
| Clindamycin alcoholate [Cmpd 280] | ++ |
| Dehydroepiandrosterone acetate [Cmpd 337] | ++ |
| Dovitinib (TKI258) Lactate [Cmpd 381] | +++ |
| Mitomycin C [Cmpd 680] | ++ |
| Testosterone Enanthate [Cmpd 932] | +++++ |
